According to US20170071976A1, “PHARMACEUTICAL SOLUTION HAVING ANTI-TUMOR EFFECT-ENHANCING AND TOXICITY-REDUCING EFFECT, AND PHARMACEUTICAL COMPOSITION COMPRISING SAME” (priority 2014, published 2017):

Tested on: xenograft tumors from human ovarian cancer SKOV3 cells
Test: SKOV3 xenograft in nude mice, intravenous deuterium oxide in combination with paclitaxel
Type: in vivo, BALB/c nude mice
Settings: Paclitaxel 8 mg/kg × 11, tail vein
Text: 3. […] 4. Statistics: the same as Example 21.

CC(=O)O[C@H]1C(=O)[C@@]2(C)[C@H]([C@H](OC(=O)c3ccccc3)[C@]3(O)C[C@H](OC(=O)[C@H](O)[C@@H](NC(=O)c4ccccc4)c4ccccc4)C(C)=C1C3(C)C)[C@]1(OC(C)=O)CO[C@@H]1C[C@@H]2O [Paclitaxel, paclitaxel]
Body weight (g) Initial: 20.1 g
